Measurements taken from patent US8629173B2, “Solid forms comprising (+)-2-[1-(3-ethoxy-4-methoxyphenyl)-2-methylsulfonylethyl]-4-acetylaminoisoindoline-1,3-dione, compositions thereof, and uses thereof” (Celgene Corporation, priority 2002, dated 2014).

The chains behind the UniProt entries cited, without tags or fusion partners. Where a name states a change or a piece, a line headed by the entry shows the natural chain unless it says otherwise.
UniProt Q13946: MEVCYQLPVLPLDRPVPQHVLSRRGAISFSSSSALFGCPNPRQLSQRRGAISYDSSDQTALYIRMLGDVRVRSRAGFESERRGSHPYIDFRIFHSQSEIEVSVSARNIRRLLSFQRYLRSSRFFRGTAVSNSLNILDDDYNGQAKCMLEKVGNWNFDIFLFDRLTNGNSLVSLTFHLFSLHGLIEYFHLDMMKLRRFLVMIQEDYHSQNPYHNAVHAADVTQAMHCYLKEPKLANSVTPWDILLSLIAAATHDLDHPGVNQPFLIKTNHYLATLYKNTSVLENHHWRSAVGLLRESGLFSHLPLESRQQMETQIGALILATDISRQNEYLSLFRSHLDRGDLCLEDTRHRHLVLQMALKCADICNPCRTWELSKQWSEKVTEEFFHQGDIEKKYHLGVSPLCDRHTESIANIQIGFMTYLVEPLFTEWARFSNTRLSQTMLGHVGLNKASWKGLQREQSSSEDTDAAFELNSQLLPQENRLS

Biological target: PDE7 purified from Hut78 human T cells (Homo sapiens, UniProt Q13946)
Test: PDE7 enzyme assay
Assay type: biochemical
Details: from Table 1 data
Method: PDE7 is a cAMP-selective PDE expressed mainly in T cells and in skeletal muscle. T cell-derived cytokines such as IL-2 and IFN-γ are potentially regulatable via PDE7 inhibition. […] Compounds were tested against the PDE7 preparation in the presence of 10 nM cAMP as described for PDE4 in Table 1.

CCOc1cc(C(CS(C)(=O)=O)N2C(=O)c3cccc(NC(C)=O)c3C2=O)ccc1OC (racemic) [Racemic Compound, 2-[1-(3-Ethoxy-4-methoxyphenyl)-2-methylsulfonylethyl]-4-acetylaminoisoindoline-1,3-dione]
PDE Specificity Ratio PDE7 IC50/PDE4 IC50: 270 fold
